Pemphigus Ab inh: blocks pemphigus antibody binding to human desmoglein-3; AID 588358; hit rate 0.48% among 310,000; DSG3-coupled beads, scFv-anti-DSG3-GFP binding, flow cytometry; stronger effect = lower value; binding (percent of control), % at 10 µM; P32926;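 active = binding more than 3 SD below its plate's average and above zero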
UUG fidelity: modulators of yeast start codon fidelity, primary screen, whole organism, S. cerevisiae, single point, plate reader; S. cerevisiae UUG-firefly luciferase reporter, luminescence/redox ratio; activity score, % at 18.7 µM; 0.13% of 350,000 active; AID 602363, 2012;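 active = replicate mean at a twofold rise or more, about +100% in these data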;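 also: firefly luciferase made from a UUG start codon reports start codon fidelity; reporter light over untreated wells divided by growth signal over untreated wells; some hits fall short of that in this replicate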
Arrestin-AP2 inh: human beta-arrestin and AP2 interaction inhibition | inhibition, % at 10 µM | FITC-arrestin peptide / GST-AP2 beads, flow cytometry; AP2 beta2 appendage carries R879A mutation | hit rate 0.31% among 340,000;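 active = inhibition above a set limit, near 3 SD of compounds lacking own fluorescence, cut at about 54% in these data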;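 note: plate controls were DMSO wells for no effect and 5 µM unlabelled arrestin peptide for full effect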
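System: GST-AP2 R879A glutathione beads | Also added: FITC-arrestin peptide, 50 nM | Times: 12 min plus 1 h, RT | Signal: Bead flow cytometry, FITC channel | Buffer or medium: PBS with 0.05% Tween 20 and 0.1% BSA | Read-out basis: Percent drop in bead-associated FITC signal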
Rce1 inh: yeast Ras-converting enzyme inhibition | Q03530 | yeast membranes, quenched prenylated peptide cleavage fluorescence | calls only | hit rate 0.27% among 290,000;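 active = fall in fluorescence gain of 50% or more versus controls, with final raw signal at or below 3038400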;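 note: plate controls were neutral control wells for no effect and wells lacking membranes for full effect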
Tb MetRS inh: blocks T. brucei methionyl-tRNA synthetase activity | purified T. brucei MetRS, ATP depletion, Kinase-Glo luminescence | hit rate 0.4% among 360,000 | inhibition, % at 11.9 µM;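 active = inhibition above a per-plate cutoff of the control wells' mean inhibition plus 3 SD, cut at about 5.5% in these data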;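 note: 0% = DMSO wells median and 100% = median of wells with control inhibitor compound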
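Material: parasite MetRS enzyme / Replication: singlicate, one well per compound / Signal: luminescence of leftover ATP / Schedule: 2 h aminoacylation at 25 °C after 15 min preincubation / Medium: HEPES-MgCl2-KCl buffer plus DTT, spermine, BSA, pyrophosphatase / Doses: 11.9 µM single point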
Tb MetRS conf: confirmation of Trypanosoma brucei MetRS inhibitors | shares compounds with Tb MetRS inh | T. brucei MetRS enzyme, luminescence (ATP depletion) | inhibition, % at 11.9 µM | hit rate 93% among 1,400 | AID 624412; in the data active = inhibition above about 7%
Jurkat tox: kills Jurkat cells in T. brucei MetRS counterscreen; inhibition, % at 8.3 µM; hit rate 12% among 1,400; Jurkat cells viability, ATP luminescence; AID 624413; shares compounds with Tb MetRS inh; in the data active = inhibition above about 15%;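 note: 0% = vehicle and 100% = reference inhibitor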
TbMetRS FP orth: orthogonal test for Trypanosoma brucei MetRS inhibitors; shares compounds with Tb MetRS inh; purified T. brucei MetRS, fluorescence polarization; inhibition, % at 11.9 µM; hit rate 44% among 1,400; AID 651607; in the data active = inhibition above about 17%;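 note: 0% = vehicle wells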
* = called active by the depositor; i = inactive; x = not tested or not shown. Hits are enriched below; roughly 1.2% of the tested compounds scored in any of these assays.

Preview:
Assay codes: A = Pemphigus Ab inh; B = UUG fidelity; C = Arrestin-AP2 inh; D = Rce1 inh; E = Tb MetRS inh; F = Tb MetRS conf; G = Jurkat tox; H = TbMetRS FP orth
#1 CCOc1ccc(NC(=O)CC2C(=O)N(c3ccc(OC)cc3)C(=O)N2CCc2cccs2)cc1 (stereo not given)
  A = 95.7; B = x; C = 17.0; D = i; E = -0.3; F = x; G = x; H = x

#2 O=C(CSc1nc2ccccc2[nH]1)NCCc1ccc(Cl)cc1
  A = 105.0; B = -18.0; C = -8.9; D = i; E = 32.3*; F = 37.2*; G = 1.1; H = 17.2*

Main list, from the first entry:
Assay codes: A = Pemphigus Ab inh; B = UUG fidelity; C = Arrestin-AP2 inh; D = Rce1 inh; E = Tb MetRS inh; F = Tb MetRS conf; G = Jurkat tox; H = TbMetRS FP orth
#1 CCOc1ccc(NC(=O)CC2C(=O)N(c3ccc(OC)cc3)C(=O)N2CCc2cccs2)cc1 (stereo not given)
  A = 95.7; B = x; C = 17.0; D = i; E = -0.3; F = x; G = x; H = x

#2 O=C(CSc1nc2ccccc2[nH]1)NCCc1ccc(Cl)cc1
  A = 105.0; B = -18.0; C = -8.9; D = i; E = 32.3*; F = 37.2*; G = 1.1; H = 17.2*

#3 O=C(CCCSc1nc2ccccc2[nH]1)NCc1ccccc1F
  A = 102.7; B = -20.7; C = -7.0; D = x; E = 3.2; F = x; G = x; H = x

#4 O=C(CCCSc1nc2ccccc2[nH]1)NCc1ccc(Cl)cc1
  A = 105.8; B = x; C = -1.6; D = i; E = 43.0*; F = 68.3*; G = -4.6; H = 30.2*

#5 Cc1ccc(CNC(=O)CSc2nc3ccccc3[nH]2)cc1
  A = 115.8; B = -7.9; C = 15.6; D = i; E = 3.2; F = x; G = x; H = x

#6 C[C@@H]1CN([C@H](C)CO)C(=O)c2cc(NC(=O)CCC(F)(F)F)ccc2O[C@H]1CN(C)C(=O)Nc1ccc2c(c1)OCO2
  A = x; B = -4.4; C = x; D = x; E = x; F = x; G = x; H = x

#7 CCNC(=O)C[C@@H]1CC[C@@H]2[C@@H](COc3ccc(NC(=O)Nc4ccc(C)cc4)cc3C(=O)N2C)O1
  A = x; B = 3.5; C = x; D = x; E = x; F = x; G = x; H = x

#8 O=C(CC1SC(=Nc2ccccc2)N(Cc2ccccn2)C1=O)Nc1ccc(Br)cc1 (stereo not given)
  A = 93.2; B = -23.4; C = 3.8; D = i; E = 19.0*; F = 37.9*; G = 2.6; H = 15.9

#9 Cc1ccccc1N=C1SC(CC(=O)Nc2ccc3ccccc3c2)C(=O)N1Cc1ccccn1 (stereo not given)
  A = 96.3; B = x; C = -4.2; D = i; E = -0.6; F = x; G = x; H = x

#10 C[C@H]1CCCCO[C@H](CN(C)Cc2ccc3c(c2)OCO3)[C@@H](C)CN([C@@H](C)CO)C(=O)c2cc(NC(=O)C3CCCCC3)ccc2O1
  A = x; B = 20.2; C = x; D = x; E = x; F = x; G = x; H = x

#11 C(=N\Nc1nc2ccccc2[nH]1)/c1ccc2ncccc2c1
  A = 114.9; B = -16.4; C = 8.2; D = i; E = 4.2; F = x; G = x; H = x

#12 C(=N\Nc1nc2ccccc2[nH]1)/c1cccc2nccnc12
  A = 96.2; B = -0.4; C = 7.1; D = i; E = 5.9*; F = 9.9*; G = 95.8*; H = 25.5*

#13 COc1cc(/C=N\Nc2nc3ccccc3[nH]2)cc(OC)c1OC
  A = x; B = -16.8; C = 23.1; D = i; E = 5.2; F = x; G = x; H = x

#14 COc1ccc2c(c1)c(/C=N/Nc1nc3ccccc3[nH]1)c(C)n2C
  A = 112.0; B = -25.8; C = 1.4; D = i; E = 7.1*; F = 18.9*; G = 16.1*; H = 18.1*

#15 COc1ccc(/C=N/Nc2nc3ccccc3[nH]2)cc1OC
  A = 97.8; B = 5.9; C = -8.9; D = i; E = 8.5*; F = 11.7*; G = 2.2; H = 31.0*

#16 COc1cc(OC)c(OC)cc1/C=N/Nc1nc2ccccc2[nH]1
  A = 122.0; B = x; C = 4.3; D = i; E = 8.7*; F = 18.0*; G = 6.0; H = 31.1*

#17 COc1cc(OC)c(OC)cc1/C=N/Nc1ncnc2c1[nH]c1ccccc12
  A = 102.4; B = -1.2; C = -40.3; D = i; E = 0.9; F = x; G = x; H = x

#18 COc1ccc(/C(C)=C2\SC(=S)N(CCC(=O)O)C2=O)cc1
  A = 92.0; B = x; C = 2.0; D = i; E = 2.7; F = x; G = x; H = x

#19 C/C(=C1/SC(=S)N(CCC(=O)O)C1=O)c1ccc(O)cc1
  A = 107.9; B = -12.8; C = 5.9; D = i; E = 25.9*; F = 64.1*; G = 2.5; H = 24.5*

#20 Cc1cccc(OCCCC(=O)Nc2ccc(Br)cc2)c1
  A = 101.2; B = -1.0; C = -8.2; D = i; E = 34.1*; F = 44.8*; G = -0.2; H = 34.4*

#21 Cc1ccc(NC(=O)CCC(=O)OCc2ccc(Br)cc2)cc1
  A = 93.7; B = x; C = -3.2; D = i; E = 16.8*; F = 25.5*; G = -6.3; H = 12.0

#22 Cc1cccc(OCCCC(=O)Nc2ccc(N(C)C)cc2)c1
  A = 121.5; B = x; C = 27.5; D = i; E = 0.0; F = x; G = x; H = x

#23 C[C@@H]1CCCCO[C@@H](CN(C)Cc2ccncc2)[C@H](C)CN([C@@H](C)CO)C(=O)c2cc(NS(=O)(=O)c3ccc(F)cc3)ccc2O1
  A = x; B = 6.8; C = x; D = x; E = x; F = x; G = x; H = x

#24 Cc1ccc2[nH]c(=O)c(CN(Cc3cccs3)Cc3nnnn3Cc3ccccc3)cc2c1
  A = 107.1; B = -7.3; C = -10.1; D = i; E = 9.1*; F = 20.8*; G = 5.4; H = 14.1

#25 CCCc1c(NC(=O)Nc2ccc(F)cc2)cnn1-c1ccccc1
  A = 109.9; B = x; C = 37.3; D = i; E = 7.1*; F = 17.2*; G = -6.7; H = 8.4

#26 CCCc1c(C(=O)Nc2ccc(F)cc2C)cnn1-c1ccccc1
  A = x; B = -14.1; C = -11.9; D = i; E = 0.6; F = x; G = x; H = x

#27 C[C@@H]1CN([C@@H](C)CO)C(=O)Cc2cc(NC(=O)C3CC3)ccc2O[C@H]1CN(C)Cc1ccc(C(=O)O)cc1
  A = x; B = -8.1; C = x; D = x; E = x; F = x; G = x; H = x

#28 C[C@@H]1CN([C@H](C)CO)C(=O)c2cccc(NS(C)(=O)=O)c2O[C@H]1CN(C)C(=O)NC1CCCCC1
  A = x; B = -3.7; C = x; D = x; E = x; F = x; G = x; H = x

#29 CN(C)C(=O)Nc1ccccc1CC[N+](=O)[O-]
  A = 97.0; B = -8.6; C = 25.6; D = i; E = -1.2; F = x; G = x; H = x

#30 O=C(Nc1ccc(Cl)cc1)Nc1ccccc1CC[N+](=O)[O-]
  A = 101.0; B = -6.4; C = 10.7; D = i; E = 37.4*; F = 65.5*; G = 4.0; H = 30.3*

Down the list, as entered above.
Compounds 24 to 29 in UUG fidelity: -7.3, x, -14.1, -8.1, -3.7, -8.6
Compounds 24 to 29 in Rce1 inh: i, i, i, x, x, i

Further entries
Below each compound – Pemphigus Ab inh	UUG fidelity	Arrestin-AP2 inh	Rce1 inh	Tb MetRS inh	Tb MetRS conf	Jurkat tox	TbMetRS FP orth
31) O=C(Nc1ccc(Cl)cc1)Nc1csc([N+](=O)[O-])c1
  97.0	-3.5	11.5	i	11.7*	22.2*	73.2*	22.2*
32) O=C(Nc1csc([N+](=O)[O-])c1)Nc1c(Cl)cccc1Cl
  105.2	-3.5	18.0	i	-0.8	x	x	x
33) Cc1cccc(-c2ccc([C@@H]3[C@H]4CN(S(=O)(=O)c5cn(C)cn5)CCCCN4[C@H]3CO)cc2)c1
  x	6.1	x	x	x	x	x	x
34) C[C@@H]1CN([C@@H](C)CO)C(=O)c2cc(NC(=O)Nc3ccc(C(F)(F)F)cc3)ccc2O[C@@H](C)CCCCO[C@H]1CN(C)S(=O)(=O)c1ccc(Cl)cc1
  x	-2.6	x	x	x	x	x	x
35) C=CCNC(=S)NNC(=O)CSc1nc2ccccc2s1
  98.8	x	-1.6	i	7.6*	14.1*	3.8	0.7
36) O=C(CSc1nc2ccccc2s1)NNC(=S)Nc1ccc(Cl)cc1
  98.3	x	-7.3	i	-0.1	x	x	x
37) COc1cccc(-c2cnc(C(O)c3ccc(F)c(F)c3)[nH]2)c1 (stereo not given)
  x	-19.0	x	x	0.1	x	x	x
38) COc1cccc(-c2cnc(C(O)c3cc(F)cc(Cl)c3)[nH]2)c1 (stereo not given)
  x	-20.6	x	x	19.6*	40.1*	0.1	18.4*
39) COc1cccc(-c2cnc(C(O)c3ccccc3)[nH]2)c1 (stereo not given)
  x	-33.5	x	x	0.1	x	x	x
40) COc1cccc(-c2cnc(C(O)c3cc(Cl)cc(Cl)c3)[nH]2)c1 (stereo not given)
  x	-2.0	x	x	54.5*	77.5*	1.4	56.9*
41) CO[C@@H]1CN(C)C(=O)c2ccc(NC(=O)Nc3ccccc3F)cc2OC[C@H](C)NC[C@@H]1C
  x	-7.7	x	x	x	x	x	x
42) Cc1noc(C)c1S(=O)(=O)Nc1ccc2c(c1)C(=O)N([C@H](C)CO)C[C@H](C)[C@@H](CN(C)S(=O)(=O)c1c(C)noc1C)OCCCC[C@H](C)O2
  x	16.0	x	x	x	x	x	x
43) C[C@@H]1CN([C@H](C)CO)S(=O)(=O)c2ccc(/C=C/c3ccccc3)cc2O[C@H]1CN(C)C(=O)Nc1cc(F)ccc1F
  x	-3.4	x	x	x	x	x	x

Assay outcomes: PubChem, several laboratories
